Earlier results in patent US8519145B2, “Aryl compounds as PPAR ligands and their use” (Seoul National University Industry Foundation, priority 2006, dated 2013).

Chains of the proteins cited; added tags and fusions are not shown. Lines headed by an entry give the natural chain unless they say otherwise; changes in a name come on top.
UniProt Q03181, whole entry: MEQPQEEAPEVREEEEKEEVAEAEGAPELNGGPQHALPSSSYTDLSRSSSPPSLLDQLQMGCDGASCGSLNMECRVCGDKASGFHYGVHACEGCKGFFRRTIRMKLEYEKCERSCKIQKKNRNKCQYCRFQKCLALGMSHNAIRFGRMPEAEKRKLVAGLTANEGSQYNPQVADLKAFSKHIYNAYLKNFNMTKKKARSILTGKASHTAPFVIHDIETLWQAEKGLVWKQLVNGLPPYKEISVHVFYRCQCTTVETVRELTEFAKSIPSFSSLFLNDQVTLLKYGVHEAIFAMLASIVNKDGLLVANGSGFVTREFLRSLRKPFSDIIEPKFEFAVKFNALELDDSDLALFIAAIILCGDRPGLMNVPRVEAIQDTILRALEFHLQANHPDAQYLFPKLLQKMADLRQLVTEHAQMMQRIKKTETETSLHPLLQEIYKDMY

Molecular target: hPPARδ (Homo sapiens, UniProt Q03181)
Conditions: literature; cited from earlier work

In the case of `CCCc1c(OCCCSc2ccc(CC(=O)O)cc2Cl)ccc2c(C(F)(F)F)noc12`, the “selectivity to other hPPAR subtypes” value is given as “barely have selectivity”.
